Test results: ChEMBL document CHEMBL5726084, “Substituted 2-azabicycles and their use as orexin receptor modulators” (2017)

Assay: Receptor Radioligand Binding Assay: Human Embryonic Kidney 293 cells (HEK293) stably expressing rat orexin 1 receptor (Genebank accession number NM_001525) or Chinese ovary cells (CHO) stably expressing human orexin 1 receptor (Genebank accession number NM_001526) were grown to confluency in DMEM (Hyclone, cat # SH30022), 10% FBS, 1× Pen/Strep, 1× sodium pyruvate, 10 mM HEPES, 600 μg/mL G418 and DMEM/F12 (Gibco, Cat #11039), 10% FBS, 1× Pen/Strep, 600 μg/mL G418 media, respectively on 150 cm2 tissue culture plates, washed with 5 mM EDTA in PBS (HyClone Dulbecco's Phosphate Buffered Saline 1× with Calcium and Magnesium, Cat # SH30264.01, hereafter referred to simply as PBS) and scraped into 50 ml tubes. After centrifugation (2K×G, 5 min at 4° C.), the supernatant was aspirated and the pellets frozen and stored at −80° C. Cells were resuspended in PBS in the presence of 1 tablet of protease inhibitor cocktail (Roche, Cat. #11836145001) per 50 mL. Each cell pellet from a 15 cm plate was resuspended in 10 mL, stored on ice, and homogenized for 45 sec prior to addition to the reactions. Competition binding experiments in 96 well polypropylene plates were performed using [3H] […]

With `Cc1ccc(-n2nccn2)c(C(=O)N2C(C)C3CC(Oc4ccc(C(F)(F)F)cn4)C2C3)n1` (single isomer, unassigned; form 1) as the compound, how does the Ki read?
Its Ki is greater than 10 µM.

Which Ki does the source give for `Cc1ccc(-n2nccn2)c(C(=O)N2C(C)C3CC(Oc4ccc(C(F)(F)F)cn4)C2C3)n1` (single isomer, unassigned; form 2) here?
The Ki was greater than 10 µM.
